Assay results from patent US20110171165A1 (priority 2008, published 2011).

CSCC[C@H](NC(=O)[C@H](Cc1ccccc1)NC(=O)CNC(=O)CNC(=O)[C@@H](N)Cc1ccc(O)cc1)C(=O)O [OGF, Tyr-Gly-Gly-Phe-Met]
stability following pre-incubation (forced release conditions (16 hours at 37° C., pH 10.0)): remained stable | stability following pre-incubation (physiological-like conditions (160 hours at 37° C., pH 7.5)): remained stable

Read-outs that look alike come from different tables or passages of the source.
